This experiment has as its system Xenografts derived from NSCLC cell lines with high levels of DTD. The settings on record: NSCLC (high DTD) vs SCLC (low DTD) derived xenografts.

For the compound `CO[C@@]12[C@H](COC(N)=O)C3=C(C(=O)C(C)=C(N)C3=O)N1C[C@@H]1N[C@@H]12` [Mitomycin C], the “susceptibility of xenografts to cytotoxic effects” value is recorded as “more susceptible”.

Values taken from patent publication US20070203109A1, “Compounds And Compositions For Treatment Of Cancer” (priority 2004, published 2007).
